Laboratory results published in patent US9199949B2, “Selective glycosidase inhibitors and uses thereof” (Alectos Therapeutics Inc., priority 2011, dated 2015).

The chains behind the UniProt entries cited, without tags or fusion partners. Where a name states a change or a piece, a line headed by the entry shows the natural chain unless it says otherwise.
UniProt Q8VIJ5: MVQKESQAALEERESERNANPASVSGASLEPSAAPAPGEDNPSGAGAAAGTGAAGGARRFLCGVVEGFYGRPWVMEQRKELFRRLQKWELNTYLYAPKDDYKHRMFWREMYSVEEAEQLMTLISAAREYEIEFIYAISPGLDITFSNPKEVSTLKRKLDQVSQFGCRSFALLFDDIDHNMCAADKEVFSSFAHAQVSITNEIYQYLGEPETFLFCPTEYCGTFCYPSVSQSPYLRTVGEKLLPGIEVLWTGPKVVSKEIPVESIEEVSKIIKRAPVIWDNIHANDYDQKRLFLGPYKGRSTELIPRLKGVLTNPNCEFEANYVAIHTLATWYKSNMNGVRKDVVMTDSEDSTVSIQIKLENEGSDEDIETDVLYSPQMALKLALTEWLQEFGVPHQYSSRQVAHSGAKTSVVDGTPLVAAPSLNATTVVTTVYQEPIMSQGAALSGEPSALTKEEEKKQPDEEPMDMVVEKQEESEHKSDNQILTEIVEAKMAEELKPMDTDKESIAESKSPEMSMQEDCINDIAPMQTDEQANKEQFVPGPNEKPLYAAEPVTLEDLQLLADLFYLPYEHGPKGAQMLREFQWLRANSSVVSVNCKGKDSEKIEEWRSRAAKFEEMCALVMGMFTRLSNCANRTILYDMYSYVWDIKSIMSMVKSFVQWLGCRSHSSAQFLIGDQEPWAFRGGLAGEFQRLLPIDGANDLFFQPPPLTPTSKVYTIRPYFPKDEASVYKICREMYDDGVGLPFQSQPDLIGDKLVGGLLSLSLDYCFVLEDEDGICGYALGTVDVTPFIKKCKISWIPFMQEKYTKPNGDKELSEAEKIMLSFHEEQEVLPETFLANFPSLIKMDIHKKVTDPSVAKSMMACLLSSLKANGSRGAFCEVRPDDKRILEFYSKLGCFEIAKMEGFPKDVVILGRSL
UniProt O60502: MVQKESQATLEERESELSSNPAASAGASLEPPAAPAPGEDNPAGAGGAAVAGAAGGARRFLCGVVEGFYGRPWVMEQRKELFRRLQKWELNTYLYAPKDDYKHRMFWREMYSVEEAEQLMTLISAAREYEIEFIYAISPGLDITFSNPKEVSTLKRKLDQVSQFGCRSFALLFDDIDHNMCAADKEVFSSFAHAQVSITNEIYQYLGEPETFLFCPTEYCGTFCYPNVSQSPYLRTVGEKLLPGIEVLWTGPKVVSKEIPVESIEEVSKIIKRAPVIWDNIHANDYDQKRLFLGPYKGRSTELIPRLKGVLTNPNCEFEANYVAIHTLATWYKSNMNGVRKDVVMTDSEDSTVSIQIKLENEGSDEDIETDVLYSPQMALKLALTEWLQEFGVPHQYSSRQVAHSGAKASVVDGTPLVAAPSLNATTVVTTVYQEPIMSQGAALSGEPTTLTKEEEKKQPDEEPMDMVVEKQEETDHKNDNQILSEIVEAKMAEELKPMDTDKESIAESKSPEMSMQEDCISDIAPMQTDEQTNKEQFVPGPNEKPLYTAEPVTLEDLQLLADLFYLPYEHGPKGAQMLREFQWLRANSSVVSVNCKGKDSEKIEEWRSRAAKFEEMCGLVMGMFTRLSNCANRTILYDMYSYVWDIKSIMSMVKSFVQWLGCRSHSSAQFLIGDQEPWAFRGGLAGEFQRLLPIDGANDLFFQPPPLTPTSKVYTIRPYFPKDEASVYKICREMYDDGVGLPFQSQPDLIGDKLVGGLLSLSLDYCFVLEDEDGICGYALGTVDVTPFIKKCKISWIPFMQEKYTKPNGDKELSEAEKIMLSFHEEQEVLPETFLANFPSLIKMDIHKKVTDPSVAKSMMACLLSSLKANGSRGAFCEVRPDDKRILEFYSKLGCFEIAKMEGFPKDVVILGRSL

Key:
O-GlcNAcase = O-GlcNAcase (Rattus norvegicus (Rat), UniProt Q8VIJ5); experiment: Cell-based ELISA for cellular activity of O-GlcNAcase inhibitors (O-GlcNAcylated protein, RL-2 antibody); conditions: rat PC-12 cells, 24 h treatment, O-GlcNAcylated protein by RL-2 ELISA
Text: Inhibition of O-GlcNAcase, which removes O-GlcNAc from cellular proteins, results in an increase in the level of O-GlcNAcylated protein in cells. An increase in O-GlcNAcylated protein can be measured by an antibody, such as RL-2, that binds to O-GlcNAcylated protein. The amount of O-GlcNAcylated protein:RL2 antibody interaction can be measured by enzyme linked immunosorbant assay (ELISA) procedures.
A variety of tissue culture cell lines, expressing endogenous levels of O-GlcNAcase, can be utilized; examples include rat PC-12, and human U-87, or SK-N-SH cells. In this assay, rat PC-12 cells were plated in 96-well plates with approximately 10,000 cells/well. […] If desired, the total protein concentration of samples was determined using 20 μL of the sample using the BCA method.
The ELISA portion of the assay was performed in a black Maxisorp 96-well plate that was coated overnight at 4° C. with 100 μL/well of the cell lysate (1:10 dilution of the lysate with PBS containing protease inhibitors, phosphatase inhibitors, and PMSF). […] The detection reaction was incubated for 15 minutes at room temperature and then read with excitation at 530 nm and emission at 590 nm.
The amount of O-GlcNAcylated protein, as detected by the ELISA assay, was plotted for each concentration of test compound using standard curve fitting algorithms for sigmoidal dose response curves. […]

human O-GlcNAcase = human O-GlcNAcase (Homo sapiens (Human), UniProt O60502); experiment: Assay for determination of KI values for inhibition of O-GlcNAcase activity (fluorescence-based hOGA); type: biochemical; conditions: purified human O-GlcNAcase, 4-Methylumbelliferyl N-acetyl-β-D-glucosaminide substrate, pH 7.0, Cheng-Prusoff
Method: Experimental Procedure for Kinetic Analyses: Enzymatic reactions were carried out in a reaction containing 50 mM NaH2PO4, 100 mM NaCl and 0.1% BSA (pH 7.0) using 2 mM 4-Methylumbelliferyl N-acetyl-β-D-glucosaminide dihydrate (Sigma M2133) dissolved in ddH2O, as a substrate. The amount of purified human O-GlcNAcase enzyme used in the reaction was 0.7 nM. Test compound of varying concentrations was added to the enzyme prior to initiation of the reaction. The reaction was performed at room temperature in a 96-well plate and was initiated with the addition of substrate. The production of fluorescent product was measured every 60 sec for 45 min with a Tecan Infinite M200 plate-reader with excitation at 355 nm and emission detected at […], with 4-Methylumbelliferone (Sigma M1381) used to produce a standard curve. The slope of product production was determined for each concentration of compound tested and plotted, using standard curve fitting algorithms for sigmoidal dose response curves. The values for a four parameter logistic curve fit of the data were determined.

EC50 (O-GlcNAcase): 8.8 nM | Ki (human O-GlcNAcase): 3 nM
Compound: CNC1=N[C@@H]2[C@@H](O)[C@H](O)[C@@H](CF)C[C@@H]2O1 [Example 2, (3aR,4R,5R,6S,7aS)-6-(fluoromethyl)-2-(methylamino)-3a,4,5,6,7,7a-hexahydrobenzo[d]oxazole-4,5-diol]
